{
  "sequences": {"note": "Amino acid sequences for entries named in this document (tags omitted). Residues count along the entry.", "UniProt P03126, 139-158 limits assumed": "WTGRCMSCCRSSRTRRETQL"},
  "source": "patent US20070099199A1",
  "biological_target": "HPV16 E6 C-terminal PDZ ligand (PL) peptide, biotinylated (human papillomavirus type 16) (UniProt P03126)",
  "assay": "G assay ELISA; immobilised GST-PDZ, biotin-peptide 10 uM",
  "data": [
    {"substance": "GST-PIST PDZ domain 1", "values": [
      {"measurement": "Ave OD", "value": 0.386, "unit": "A450 nm"},
      {"measurement": "OD S/N (ratio vs GST only)", "value": 1.96}
    ]}
  ]
}
